{"sequences": {"note": "Amino acid sequences for entries named in this document (tags omitted). A change or cut given only in a name is not applied to a line headed by its entry.", "UniProt Q12809": "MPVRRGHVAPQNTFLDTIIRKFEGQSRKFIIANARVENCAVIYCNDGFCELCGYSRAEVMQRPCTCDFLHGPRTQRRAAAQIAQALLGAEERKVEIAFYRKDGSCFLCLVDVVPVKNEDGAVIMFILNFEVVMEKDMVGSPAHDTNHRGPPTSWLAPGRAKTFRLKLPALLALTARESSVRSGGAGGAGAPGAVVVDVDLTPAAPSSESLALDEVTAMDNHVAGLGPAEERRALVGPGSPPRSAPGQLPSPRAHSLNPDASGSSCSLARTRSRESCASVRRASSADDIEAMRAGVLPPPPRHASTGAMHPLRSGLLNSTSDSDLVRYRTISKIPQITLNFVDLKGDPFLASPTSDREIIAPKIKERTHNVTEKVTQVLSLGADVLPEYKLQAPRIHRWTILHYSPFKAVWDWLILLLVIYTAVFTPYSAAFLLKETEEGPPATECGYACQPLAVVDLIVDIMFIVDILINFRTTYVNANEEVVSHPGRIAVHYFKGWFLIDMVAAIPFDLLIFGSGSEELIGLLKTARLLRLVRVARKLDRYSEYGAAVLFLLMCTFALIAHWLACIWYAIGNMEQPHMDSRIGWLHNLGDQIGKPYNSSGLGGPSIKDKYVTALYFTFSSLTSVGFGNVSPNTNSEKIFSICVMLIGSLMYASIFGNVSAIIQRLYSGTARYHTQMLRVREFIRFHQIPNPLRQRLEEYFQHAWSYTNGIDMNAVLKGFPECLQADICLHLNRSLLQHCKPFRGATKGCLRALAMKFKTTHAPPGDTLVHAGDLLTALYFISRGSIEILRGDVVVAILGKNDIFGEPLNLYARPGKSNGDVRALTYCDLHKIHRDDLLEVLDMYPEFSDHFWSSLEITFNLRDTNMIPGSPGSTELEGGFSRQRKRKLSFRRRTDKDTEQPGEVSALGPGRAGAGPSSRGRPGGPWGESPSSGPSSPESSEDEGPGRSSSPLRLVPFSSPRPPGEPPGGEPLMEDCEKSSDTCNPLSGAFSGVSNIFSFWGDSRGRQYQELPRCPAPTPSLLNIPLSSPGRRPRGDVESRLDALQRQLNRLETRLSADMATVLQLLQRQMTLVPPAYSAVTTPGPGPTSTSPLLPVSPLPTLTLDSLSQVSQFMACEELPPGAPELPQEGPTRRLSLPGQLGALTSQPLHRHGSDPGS"}, "source": "patent US20100105727A1", "about": "“NOVEL BENZAMIDE DERIVATIVES AND PROCESS FOR THE PREPARTION THEREOF” (DONG-A-PHARM. CO., LTD., priority 2007, published 2010)", "target": "T1, hERG potassium channel (Homo sapiens, UniProt Q12809)", "T1 construct": "host or cells: HEK-293", "assay": "Binding affinity of compounds for hERG receptor ([H3]-Astemizole displacement, HEK-293 membrane lysates)", "settings": "% inhibition of specific binding of 1.5 nM [H3]-Astemizole at 0.2 μM test material", "description": "Membrane lysates were obtained from mammalian HEK-293 cells expressing the hERG potassium channel and used in binding assay experiments. […] After incubation was completed, the radioactivity bound to the hERG K+ channel was counted. The affinity of each test material for the hERG K+ channel was calculated from % inhibition of specific binding of the radioligand to the hERG K+ channel, resulting from the action of the test material.", "data": [{"smiles": "COc1cc(N)c(Cl)cc1C(=O)NC1CCN(CCCOc2ccc(F)cc2)CC1OC", "note": "(centres unmarked) [Cisapride, cisapride, reference compound]", "values": [{"measurement": "hERG binding affinity (% at 0.2 μM)", "value": 58, "unit": "% at 0.2 μM"}, {"measurement": "hERG binding affinity (% at 0.2 μM)", "setting": "listed as cisapride", "value": 58, "unit": "%"}]}]}
